Data reported in patent EP4831189A1, “KINASE INHIBITOR ACTIVATED IN TUMOR MICROENVIRONMENT, COMPOSITION AND USE” (dated 2026).

Chains of the proteins cited; added tags and fusions are not shown. Residues count along the entry.
UniProt P35968, 20-1356 limits assumed: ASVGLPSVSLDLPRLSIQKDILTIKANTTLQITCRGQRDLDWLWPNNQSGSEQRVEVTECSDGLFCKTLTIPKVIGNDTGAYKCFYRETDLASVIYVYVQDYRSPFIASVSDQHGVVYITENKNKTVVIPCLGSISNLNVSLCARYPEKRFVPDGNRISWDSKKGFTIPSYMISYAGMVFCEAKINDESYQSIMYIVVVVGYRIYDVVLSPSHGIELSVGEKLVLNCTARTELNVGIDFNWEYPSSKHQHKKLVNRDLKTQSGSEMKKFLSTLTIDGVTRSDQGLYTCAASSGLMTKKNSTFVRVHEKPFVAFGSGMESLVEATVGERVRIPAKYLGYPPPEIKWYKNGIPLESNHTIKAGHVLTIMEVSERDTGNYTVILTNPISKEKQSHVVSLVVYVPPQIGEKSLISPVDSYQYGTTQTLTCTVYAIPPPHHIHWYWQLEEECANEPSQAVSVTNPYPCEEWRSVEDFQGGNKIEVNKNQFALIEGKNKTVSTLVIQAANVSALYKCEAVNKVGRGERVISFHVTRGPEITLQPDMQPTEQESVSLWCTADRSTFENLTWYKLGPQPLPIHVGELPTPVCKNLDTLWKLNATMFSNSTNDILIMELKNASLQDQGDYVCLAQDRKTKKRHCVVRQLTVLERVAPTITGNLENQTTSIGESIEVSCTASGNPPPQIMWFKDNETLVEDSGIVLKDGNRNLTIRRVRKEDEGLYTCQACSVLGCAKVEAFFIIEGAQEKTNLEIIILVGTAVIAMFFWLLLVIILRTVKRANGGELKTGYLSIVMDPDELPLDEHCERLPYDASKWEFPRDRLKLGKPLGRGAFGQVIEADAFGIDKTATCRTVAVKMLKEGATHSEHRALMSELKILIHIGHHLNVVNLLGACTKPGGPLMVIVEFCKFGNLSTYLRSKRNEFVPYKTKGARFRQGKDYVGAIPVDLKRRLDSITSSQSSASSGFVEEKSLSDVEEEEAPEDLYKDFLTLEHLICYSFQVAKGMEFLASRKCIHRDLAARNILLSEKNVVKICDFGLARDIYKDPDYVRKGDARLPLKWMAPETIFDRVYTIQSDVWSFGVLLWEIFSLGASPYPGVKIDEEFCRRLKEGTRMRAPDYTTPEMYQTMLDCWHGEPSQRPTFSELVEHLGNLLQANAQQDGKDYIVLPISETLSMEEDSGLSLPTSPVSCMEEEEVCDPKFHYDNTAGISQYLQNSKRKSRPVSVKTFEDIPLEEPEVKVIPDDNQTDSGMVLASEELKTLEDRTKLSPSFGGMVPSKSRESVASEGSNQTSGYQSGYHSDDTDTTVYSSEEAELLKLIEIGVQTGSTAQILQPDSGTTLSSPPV
UniProt P30530, 26-894 limits assumed: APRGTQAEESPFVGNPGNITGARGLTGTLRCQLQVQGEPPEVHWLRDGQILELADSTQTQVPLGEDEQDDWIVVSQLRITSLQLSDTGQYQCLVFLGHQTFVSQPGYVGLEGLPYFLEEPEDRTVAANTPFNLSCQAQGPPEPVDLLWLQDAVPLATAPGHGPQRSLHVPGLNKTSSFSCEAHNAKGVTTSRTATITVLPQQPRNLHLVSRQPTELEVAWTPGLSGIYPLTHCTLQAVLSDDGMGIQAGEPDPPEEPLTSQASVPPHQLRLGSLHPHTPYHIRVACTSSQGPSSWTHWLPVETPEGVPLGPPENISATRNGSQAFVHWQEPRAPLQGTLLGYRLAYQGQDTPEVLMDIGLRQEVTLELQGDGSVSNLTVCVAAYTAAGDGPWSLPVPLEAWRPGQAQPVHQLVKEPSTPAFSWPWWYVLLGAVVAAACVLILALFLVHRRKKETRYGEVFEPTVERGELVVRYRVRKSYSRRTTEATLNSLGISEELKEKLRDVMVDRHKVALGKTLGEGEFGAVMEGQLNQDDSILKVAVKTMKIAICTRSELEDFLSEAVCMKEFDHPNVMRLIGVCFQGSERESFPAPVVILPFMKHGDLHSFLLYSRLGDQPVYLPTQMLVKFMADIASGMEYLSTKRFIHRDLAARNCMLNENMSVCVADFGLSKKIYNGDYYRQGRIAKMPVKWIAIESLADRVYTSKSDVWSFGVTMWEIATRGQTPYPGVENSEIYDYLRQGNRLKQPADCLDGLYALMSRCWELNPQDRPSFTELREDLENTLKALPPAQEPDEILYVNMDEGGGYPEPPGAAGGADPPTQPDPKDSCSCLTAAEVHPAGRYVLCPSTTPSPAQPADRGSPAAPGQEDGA
UniProt P08581, 25-1390 limits assumed: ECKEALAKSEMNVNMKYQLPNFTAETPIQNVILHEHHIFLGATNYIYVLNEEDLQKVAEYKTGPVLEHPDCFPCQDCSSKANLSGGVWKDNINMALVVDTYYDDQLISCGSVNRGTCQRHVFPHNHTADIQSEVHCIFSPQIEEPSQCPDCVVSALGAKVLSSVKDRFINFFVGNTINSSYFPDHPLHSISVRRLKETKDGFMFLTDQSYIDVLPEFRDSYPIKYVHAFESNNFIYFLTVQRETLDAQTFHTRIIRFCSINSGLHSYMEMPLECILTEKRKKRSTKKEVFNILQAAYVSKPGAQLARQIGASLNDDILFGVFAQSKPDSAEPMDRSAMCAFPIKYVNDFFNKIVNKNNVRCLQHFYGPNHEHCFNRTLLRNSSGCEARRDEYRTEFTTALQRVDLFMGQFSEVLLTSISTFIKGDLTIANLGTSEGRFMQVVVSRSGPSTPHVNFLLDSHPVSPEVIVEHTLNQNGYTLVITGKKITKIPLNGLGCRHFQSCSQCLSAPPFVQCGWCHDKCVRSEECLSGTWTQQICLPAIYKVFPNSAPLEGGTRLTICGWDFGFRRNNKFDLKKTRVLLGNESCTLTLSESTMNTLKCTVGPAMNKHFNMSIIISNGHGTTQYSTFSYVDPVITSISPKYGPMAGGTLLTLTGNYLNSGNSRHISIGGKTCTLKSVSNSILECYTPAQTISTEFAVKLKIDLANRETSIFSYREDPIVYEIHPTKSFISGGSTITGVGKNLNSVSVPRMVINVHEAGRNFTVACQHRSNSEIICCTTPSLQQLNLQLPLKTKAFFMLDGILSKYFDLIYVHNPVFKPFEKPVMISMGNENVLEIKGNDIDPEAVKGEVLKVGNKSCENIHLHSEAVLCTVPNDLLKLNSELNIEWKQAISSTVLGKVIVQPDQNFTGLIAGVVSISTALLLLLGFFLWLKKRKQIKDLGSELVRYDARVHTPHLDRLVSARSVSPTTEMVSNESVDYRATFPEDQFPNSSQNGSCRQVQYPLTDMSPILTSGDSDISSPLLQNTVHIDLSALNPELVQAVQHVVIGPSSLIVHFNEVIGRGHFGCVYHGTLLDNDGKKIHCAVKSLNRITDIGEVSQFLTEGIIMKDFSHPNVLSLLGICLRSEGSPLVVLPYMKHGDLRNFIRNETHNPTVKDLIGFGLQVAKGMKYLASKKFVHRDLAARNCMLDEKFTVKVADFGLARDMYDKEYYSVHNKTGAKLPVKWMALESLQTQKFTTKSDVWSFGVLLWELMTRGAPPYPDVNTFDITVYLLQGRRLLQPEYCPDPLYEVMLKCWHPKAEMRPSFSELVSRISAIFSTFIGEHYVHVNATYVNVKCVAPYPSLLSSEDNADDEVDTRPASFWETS
UniProt P36888, 27-993 limits assumed: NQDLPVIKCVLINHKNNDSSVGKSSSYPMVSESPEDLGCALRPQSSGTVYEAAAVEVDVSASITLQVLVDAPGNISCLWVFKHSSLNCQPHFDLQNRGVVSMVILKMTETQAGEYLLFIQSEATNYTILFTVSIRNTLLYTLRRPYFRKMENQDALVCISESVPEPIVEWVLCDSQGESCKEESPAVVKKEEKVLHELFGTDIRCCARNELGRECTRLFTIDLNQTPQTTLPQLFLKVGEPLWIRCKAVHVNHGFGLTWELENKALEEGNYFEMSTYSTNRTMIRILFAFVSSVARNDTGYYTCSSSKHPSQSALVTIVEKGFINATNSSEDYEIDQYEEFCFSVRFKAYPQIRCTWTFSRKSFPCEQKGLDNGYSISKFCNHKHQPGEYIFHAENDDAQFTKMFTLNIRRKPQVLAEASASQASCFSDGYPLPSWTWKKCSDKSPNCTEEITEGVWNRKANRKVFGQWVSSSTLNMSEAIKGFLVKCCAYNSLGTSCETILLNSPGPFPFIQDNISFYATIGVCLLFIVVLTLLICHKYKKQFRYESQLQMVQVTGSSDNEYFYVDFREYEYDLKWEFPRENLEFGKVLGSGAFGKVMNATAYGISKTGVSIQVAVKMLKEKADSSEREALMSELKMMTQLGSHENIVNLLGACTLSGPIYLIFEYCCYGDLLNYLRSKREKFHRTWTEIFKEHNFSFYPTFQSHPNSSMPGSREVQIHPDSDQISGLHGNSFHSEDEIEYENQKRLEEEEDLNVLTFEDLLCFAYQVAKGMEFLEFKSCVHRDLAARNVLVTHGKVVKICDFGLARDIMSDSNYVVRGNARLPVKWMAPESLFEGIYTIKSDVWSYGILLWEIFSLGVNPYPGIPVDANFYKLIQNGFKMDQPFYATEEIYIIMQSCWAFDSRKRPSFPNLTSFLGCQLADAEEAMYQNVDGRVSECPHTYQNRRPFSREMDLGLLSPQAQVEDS
UniProt P10721, 26-976 limits assumed: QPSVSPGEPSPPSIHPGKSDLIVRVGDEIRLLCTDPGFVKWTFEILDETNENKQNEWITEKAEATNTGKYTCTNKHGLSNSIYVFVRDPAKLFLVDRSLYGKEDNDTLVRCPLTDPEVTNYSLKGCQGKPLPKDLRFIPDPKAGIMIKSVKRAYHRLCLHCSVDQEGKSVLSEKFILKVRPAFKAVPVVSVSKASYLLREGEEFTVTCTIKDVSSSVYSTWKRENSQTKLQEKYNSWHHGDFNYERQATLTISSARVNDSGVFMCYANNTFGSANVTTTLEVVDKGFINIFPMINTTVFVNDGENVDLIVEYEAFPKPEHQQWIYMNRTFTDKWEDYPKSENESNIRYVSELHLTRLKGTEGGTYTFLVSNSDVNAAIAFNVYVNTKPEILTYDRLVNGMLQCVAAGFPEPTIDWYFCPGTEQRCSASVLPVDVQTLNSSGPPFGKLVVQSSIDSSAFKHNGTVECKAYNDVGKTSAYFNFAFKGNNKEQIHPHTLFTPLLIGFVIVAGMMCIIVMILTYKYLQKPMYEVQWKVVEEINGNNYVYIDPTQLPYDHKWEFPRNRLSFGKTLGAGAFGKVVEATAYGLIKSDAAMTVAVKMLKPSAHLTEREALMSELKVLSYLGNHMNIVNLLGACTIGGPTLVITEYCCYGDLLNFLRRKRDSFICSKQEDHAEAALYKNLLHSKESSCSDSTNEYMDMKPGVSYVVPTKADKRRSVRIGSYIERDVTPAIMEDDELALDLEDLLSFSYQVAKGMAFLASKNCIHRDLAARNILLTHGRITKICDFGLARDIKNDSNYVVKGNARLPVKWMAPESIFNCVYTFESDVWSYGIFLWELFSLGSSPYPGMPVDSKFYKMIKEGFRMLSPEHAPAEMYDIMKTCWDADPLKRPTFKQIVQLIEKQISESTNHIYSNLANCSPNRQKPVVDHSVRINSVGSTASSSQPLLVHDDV

Experiments:
mouse xenograft CT-26 = test: Efficacy study in CT-26 tumor model (Embodiment 11); conditions: for Body weight vs D0 D20 / Tumor volume (mean ± SEM) D20: CT-26, dose not given; for tumor inhibition effect: CT-26 syngeneic xenograft model, compared with the normal saline group
MDA-MB-231 tumor model = test: Efficacy study in MDA-MB-231 tumor model (Embodiment 14); conditions: for tumor inhibition effect: MDA-MB-231 tumor model, compared with the normal saline group
mouse xenograft MKN45 = test: Efficacy study in MKN45 tumor model (Embodiment 12); conditions: for tumor inhibition effect: MKN45 xenograft model, compared with the normal saline group
mouse xenograft HUH7 = test: Efficacy study in HUH7 tumor model (Embodiment 13); conditions: for Body weight vs D0 D36 / Tumor size (mean + SEM) D36: HUH7, dose not given; for tumor inhibition effect: HUH7 xenograft model, compared with the normal saline group
A549 cells = test: Cytotoxicity study (MTT) on A549 cells; conditions: 48 hours, 0 to 100 µM
KDR (VEGFR2) = KDR (VEGFR2) (Homo sapiens, UniProt P35968); test: Kinase inhibitory activity by ADP-Glo method; conditions: read-out: IC50 KDR (VEGFR2)
AXL = AXL (Homo sapiens, UniProt P30530); test: Kinase inhibitory activity by ADP-Glo method; conditions: read-out: IC50 AXL
Met = Met (Homo sapiens, UniProt P08581); test: Kinase inhibitory activity by ADP-Glo method; conditions: read-out: IC50 Met
FLT3 = FLT3 (Homo sapiens, UniProt P36888); test: Kinase inhibitory activity by ADP-Glo method; conditions: read-out: IC50 FLT3
Kit = Kit (Homo sapiens, UniProt P10721); test: Kinase inhibitory activity by ADP-Glo method; conditions: read-out: IC50 Kit
B16F10 cells = test: Cytotoxicity study (MTT) on B16F10 cells; conditions: 48 hours, 0 to 100 µM
[1] = MDA-MB-231, dose not given, D36

Row | Compound | Body weight vs D0 D20 (mouse xenograft CT-26) | Tumor volume (mean ± SEM) D20 (mouse xenograft CT-26) | tumor inhibition effect (mouse xenograft CT-26) | Tumor growth inhibition rate TGI D36 (MDA-MB-231 tumor model; [1]) | tumor inhibition effect (MDA-MB-231 tumor model) | Tumor growth inhibition rate TGI D28 (mouse xenograft MKN45; MKN45, 7.90 µmol/kg, D28) | Tumor volume (mean ± SEM) D36 (mouse xenograft MKN45; MKN45, 7.90 µmol/kg) | tumor inhibition effect (mouse xenograft MKN45) | Body weight vs D0 D36 (mouse xenograft HUH7) | Tumor size (mean + SEM) D36 (mouse xenograft HUH7) | tumor inhibition effect (mouse xenograft HUH7) | toxicity to A549 cells (A549 cells) | IC50 (KDR (VEGFR2)) | IC50 (AXL) | IC50 (Met) | IC50 (FLT3) | IC50 (Kit) | Body weight vs D0 D36 (MDA-MB-231 tumor model; [1]) | Body weight vs D0 D28 (mouse xenograft MKN45; MKN45, 7.90 µmol/kg, D28) | toxicity to B16F10 cells (B16F10 cells)
1 | COc1cc2c(Oc3ccc(NC(=O)C4(C(=O)Nc5ccc(F)cc5)CC4)cc3F)ccnc2cc1OCCCN1CCOCC1 | 19.3% | 1656.25 ± 369.27 mm^3 | good tumor inhibition effects | 47.70% | good tumor inhibition effects | 40.76% | 695.24 ± 63.91 mm^3 | good tumor inhibition effects | 18.4% | 2509.13 ± 902.2 mm^3 | good tumor inhibition effects | – | – | – | – | – | – | – | – | –
2 | COc1cc2c(Oc3ccc(NC(=O)C4(C(=O)Nc5ccc(F)cc5)CC4)cc3F)ccnc2cc1OCCCN1CCNCC1 | 13.4% | 3047.86 ± 1271.21 mm^3 | did not exhibit a tumor inhibition effect | 0.13% | did not exhibit a tumor inhibition effect | -0.21% | 1082.48 ± 52.47 mm^3 | did not exhibit a tumor inhibition effect | 8.8% | 1614.49 ± 323.28 mm^3 | did not exhibit a tumor inhibition effect | stronger than that of foretinib | 2.34 nM | 0.23 nM | 9.13 nM | 7.5 nM | 9.1 nM | 2.7% | -1.8% | stronger than that of foretinib
